# Source: patent US11401278B2, “Macrocyclic indole derivatives” (The Broad Institute, Inc., priority 2017, dated 2022)
# The chains behind the UniProt entries cited, without tags or fusion partners. A line that says so, or that is headed by a name, gives the form on record, which may keep a tag or linker. Residues count along the entry.
# UniProt Q07817, 1-212 with tags or gaps limits assumed: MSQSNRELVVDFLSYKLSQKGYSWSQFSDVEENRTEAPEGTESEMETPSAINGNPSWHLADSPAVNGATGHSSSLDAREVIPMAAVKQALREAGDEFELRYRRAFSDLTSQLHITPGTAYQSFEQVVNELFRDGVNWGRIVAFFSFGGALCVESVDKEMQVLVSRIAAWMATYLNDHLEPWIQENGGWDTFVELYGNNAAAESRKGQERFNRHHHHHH
# Molecular target: BCL-XL (Homo sapiens (Human), UniProt Q07817)
# Assay: Protein-protein interaction assay BCL-XL/Bad BH3 peptide (BCL-XL assay, TR-FRET)
# Assay type: binding
# Details: read-out: BCL-XL Assay [M] (median) IC50, His-BCL-XL / Bad BH3 peptide
# Procedure: Assay 2 Protein-Protein Interaction Assay: BCL-XL/Bad BH3 Peptide (BCL-XL Assay)
# The dose-dependent inhibition by the compounds described in this invention of the interaction between BCL-XL and the BH3 domain of Bad (both human) was determined using a steady state binding competition assay with time-resolved fluorescence energy transfer (TR-FRET) readout. […]
# In the assay 11 different concentrations of each compound (0.1 nM, 0.33 nM, 1.1 nM, 3.8 nM, 13 nM, 44 nM, 0.15 μM, 0.51 μM, 1.7 μM, 5.9 μM and 20 μM) were typically measured as duplicates in the same microtiter plate. […]
# The mixture was incubated in the dark for one hour at 22° C. and then overnight at 4° C. The formation of BCL-XL/Bad complexes was determined by measuring the resonance energy transfer of the anti-His- Eu-cryptate antibody to the streptavidin-XL665 present in the reaction. For that purpose, the fluorescence emission at 620 nm and 665 nm after excitation at 330-350 nm was measured in a TR-FRET measuring instrument, for instance a Rubystar or a Pherastar (both from BMG Lab Technologies, Offenburg, Germany) or a Viewlux (Perkin-Elmer). […]
structure (smiles),measurement,value
CCc1c2c(nn1C)CNS(=O)(=O)CCCn1c(C(=O)O)c(CCCOc3cccc4cc(F)ccc34)c3ccc(Cl)c-2c31,IC50,> 2e-05 M
